Consider 1 compound from patent publication US12593865B2, “Member for flavor inhalation article, flavor inhalation article, phenol scavenger for flavor inhalation article, and method for producing flavor inhalation article” (Japan Tobacco Inc., priority 2019, dated 2026).

Series [1] is described as follows: Vapor pressure Vp of the substance at 25° C.
The nature of series [2]: Octanol/water partition coefficient Log P at 25° C.

As to `CCCCOP(=O)(OCCCC)OCCCC`, the “Vapor Pressure (Pa) at 25° C.” value in series [1] was 0.151 Pa. In addition, the Partition Coefficient Log P at 25° C. in series [2] came out at 4.54.
